Sequences of proteins named here, by UniProt entry; tags and fusion partners are left off. Residues count along the entry.
UniProt P03952, 20-638: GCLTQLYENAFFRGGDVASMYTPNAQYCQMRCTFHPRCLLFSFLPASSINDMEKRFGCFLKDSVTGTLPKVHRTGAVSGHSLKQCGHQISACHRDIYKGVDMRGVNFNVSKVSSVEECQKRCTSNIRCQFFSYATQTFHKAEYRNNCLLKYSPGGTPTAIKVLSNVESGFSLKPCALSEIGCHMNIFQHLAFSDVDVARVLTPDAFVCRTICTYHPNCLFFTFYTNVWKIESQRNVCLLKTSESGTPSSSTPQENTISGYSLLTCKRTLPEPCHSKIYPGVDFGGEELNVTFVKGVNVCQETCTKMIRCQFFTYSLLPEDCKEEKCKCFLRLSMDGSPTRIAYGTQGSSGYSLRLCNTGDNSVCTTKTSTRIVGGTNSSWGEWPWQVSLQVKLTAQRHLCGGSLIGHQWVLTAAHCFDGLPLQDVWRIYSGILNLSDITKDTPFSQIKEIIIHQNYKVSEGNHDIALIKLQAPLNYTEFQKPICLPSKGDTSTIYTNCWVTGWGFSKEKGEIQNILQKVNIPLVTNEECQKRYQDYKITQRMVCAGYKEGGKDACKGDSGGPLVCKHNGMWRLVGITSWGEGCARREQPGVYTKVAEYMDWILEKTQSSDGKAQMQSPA

According to patent US10118947B2, “Modulation of structured polypeptide specificity” (BICYCLE THERAPEUTICS LIMITED, priority 2013, dated 2018):

Target: T1, human plasma Kallikrein (Homo sapiens, UniProt P03952)
T1 construct: purchased Stratech, UK
Assay: Functional enzyme inhibition assay with fluorogenic substrate Z-PheArg-AMC, human plasma Kallikrein
Format: biochemical
Conditions: Table 4; read-out: Kallikrein Av Ki
Procedure: Functional enzyme assays were conducted in 10 mM Tris HCl, 150 mM NaCl, 10 mM MgCl2, 1 mM CaCl2) and 1 mg/mL BSA (all Sigma UK) pH7.4 at 25° C. in solid black 96 well plates. Briefly 26.5 pM human plasma Kallikrein (purchased from Stratech, UK) or 500 pM rat plasma Kallikrein (expressed and purified in house) were incubated in the absence or presence of increasing concentrations of test peptide for 15 minutes before addition of the fluorogenic substrate Z-PheArg-AMC (Enzo Lifesciences UK) to a final assay concentration of 100 μM in 4% DMSO. Release of AMC was measured using a Pherastar FS (BMG Labtech), excitation 360 nm, emission 460 nm. The rate of the linear phase of the reaction, typically 5 to 45 minutes, was calculated in MARS data analysis software (BMG labtech). […]
Peptides were dissolved as the TFA-salts in their powder form, and stock solutions were usually prepared in water. […] Extinction coefficients were calculated based on the Trp/Tyr content of the peptide, and that of TMB (the TMB core, when contained in a peptide, has an ε of ˜300 M^−1cm^−1). For peptides containing non-natural amino acids with suspected chromophoric properties (i.e. NorHar, 4PhenylPro, 3Pal, 4Pal, Tic, 4GuanPhe, 4,4-BPAI, 3,3-DPA, 1NAI, 2NAI, 4BenzylPro, Ind) concentrations were determined by weighing the powder and dissolving the peptide in a defined quantity of water. […]

Compound	Ki [nM]
CC(C)C[C@@H]1NC(=O)[C@H](CO)NC(=O)[C@H]([C@@H](C)O)NC(=O)[C@H]([C@@H](C)O)NC(=O)[C@H](CC(C)C)NC(=O)[C@@H]2CSCc3cc(cc(c3)CSC[C@@H](C(=O)NCC(N)=O)NC1=O)CSC[C@H](NC(=O)[C@H](C)N)C(=O)N[C@@H](C)C(=O)N[C@@H](Cc1c[nH]c3ccccc13)C(=O)N1CCC[C@H]1C(=O)N[C@@H](C)C(=O)N[C@@H](CCCNC(=N)N)C(=O)N2 [Peptide 1E6]	0.16
C[C@H](N)C(=O)N[C@H]1CSCc2cc3cc(c2)CSC[C@@H](C(=O)N[C@@H](C)C(N)=O)NC(=O)[C@H]([C@@H](C)O)NC(=O)[C@H]([C@@H](C)O)NC(=O)[C@H](Cc2c[nH]c4ccccc24)NC(=O)[C@H]([C@@H](C)O)NC(=O)[C@H](CCCNC(=N)N)NC(=O)[C@H](CSC3)NC(=O)[C@H](CC(N)=O)NC(=O)[C@H](CCC(N)=O)NC(=O)[C@@H]2CCCN2C(=O)CNC(=O)CNC1=O [Peptide 06-56]	2.1
